# AlphaSeq binding of Ab-14 light chain variants to a spike HR2 peptide

The measurements come from Engelhart et al. 2022 (doi:10.1038/s41597-022-01779-4) through the FLAb antibody collection.

Target peptide (SARS-CoV-2 spike, HR2 region): PDVDLGDISGINAS

Ab-14 is the parent antibody, in scFv form: VH, then a (GGGGS)3 linker, then VL. The heavy chain is unchanged in all variants.
VH: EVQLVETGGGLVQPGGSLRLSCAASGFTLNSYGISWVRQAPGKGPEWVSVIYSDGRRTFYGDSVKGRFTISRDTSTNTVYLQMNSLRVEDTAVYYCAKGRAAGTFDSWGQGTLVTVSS
VL: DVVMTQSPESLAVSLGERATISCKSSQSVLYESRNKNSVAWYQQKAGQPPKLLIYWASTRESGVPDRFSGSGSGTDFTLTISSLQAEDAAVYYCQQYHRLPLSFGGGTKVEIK

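The starting antibody came from a phage panning campaign against this peptide. The library (AAYL50) carries one to three amino acid substitutions per variant, with no insertions or deletions. AlphaSeq pools MATa yeast showing the antibodies with MATalpha yeast showing the peptide. After mating in shaken culture at 30 °C for 16 h, diploids were selected and their barcode pairs sequenced. A regression on co-assayed BCL2-family reference pairs converts the normalised counts of each replicate to an apparent Kd. Each pool was mated in three replicate cultures.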

Each variant is given by its three light chain CDRs, as the data file delimits them; those of the parent are KSSQSVLYESRNKNSVA, WASTRES, QQYHRLPLS. Values are log10 of the apparent Kd in nM; lower means stronger binding. Averages over replicates are reported, and they cover detected replicates only. Where no diploid with the target was found in that replicate, the entry reads "nd": below detection, most likely a poor binder, though not proof of it. For reference, the parent read 0.65 as the reference entry and 1.68 as a member of this library.

CDR-L1	CDR-L2	CDR-L3	replicates, log10 nM	mean log10 Kd (nM)	empty controls
KSSQSVLYESRNKNSVA	WASTRES	WQYHRRPLI	2.59 nd 3.55	3.07	0/9
KSSQSVLYESRNKNSVA	WASTPES	VQYHSLPLS	nd nd nd	nd	0/9
KSMQSVLYESRNKNSVM	WASTRES	EQYHRLPLS	4.90 nd nd	4.90	2/9 (4.43)
KSFQSVLYESRNKNSVA	WISTRES	QQYHRLPLS	4.40 nd nd	4.40	1/9 (4.03)
KSSQSVTYESRNKESVA	WASTREC	QQYHRLPLS	1.34 1.40 1.49	1.41	0/9
KSEQSVLYESRDKNSVA	WALTRES	QQYHRLPLS	nd nd 3.36	3.36	2/9 (4.48)
KSSQSVLYESRPKNGVA	WASTRES	QQYHRVPLS	3.74 4.03 nd	3.88	2/9 (4.19)
KSSQSVLYGSRNKNKVA	WASTRES	QQYHRGPLS	3.30 nd nd	3.30	1/9 (3.74)
KNIQSCLYESRNKNSVA	WASTRES	QQYHRLPLS	5.71 4.62 nd	5.17	4/9 (4.15)
KSGQSVLYESRNKHSVA	WASCRES	QQYHRLPLS	2.34 1.87 2.24	2.15	3/9 (3.63)
KSSQSVLYESRTKNSVA	WASTRES	QQYHRLPLS	1.52 1.50 1.45	1.49	2/9 (4.11)
KYSQFVLYESRNKNSVA	WAKTRES	QQYHRLPLS	nd nd nd	nd	0/9
KSSQSVLYYSQNKNSVA	WASTRES	QQYHRLPLD	1.21 1.37 1.33	1.30	2/9 (4.50)
KKSQSVLYESRNKNSVA	WASTRES	QSYHRLPRS	nd nd nd	nd	1/9 (3.80)
KSSQSVLGESRNKNSVA	WAATRES	QQYHRLMLS	nd nd nd	nd	1/9 (2.16)
KSSPSVLYESRNKNSVA	KASTRES	QQYHRLPPS	0.91 1.02 0.97	0.97	0/9
KSSTSVLYESRNKNSVA	WASTRCS	QQYHRLYLS	0.80 1.22 1.46	1.16	0/9
ESSQSVLYESRNDNIVA	WASTRES	QQYHRLPLS	nd nd nd	nd	0/9
FSSQSVLDESRNKKSVA	WASTRES	QQYHRLPLS	1.05 1.21 1.20	1.15	5/9 (4.86)
KSSQSVLYESRNKNSVS	WASTRES	QQYHPLPCS	nd nd nd	nd	1/9 (4.39)
KSSQSVSYHSRNVNSVA	WASTRES	QQYHRLPLS	0.90 1.03 0.94	0.95	4/9 (5.15)
KYSQSVLYHSRNKNSVA	WATTRES	QQYHRLPLS	1.03 1.10 0.94	1.03	2/9 (4.19)
KSSQSVCYESRNKNSVF	WASYRES	QQYHRLPLS	nd nd nd	nd	1/9 (4.90)
KSSQSVLYESRNKNSVT	WASSHES	QQYHRLPLS	nd nd nd	nd	0/9
KSSWWVLYESRNKNSVA	WAFTRES	QQYHRLPLS	nd nd nd	nd	0/9
KRSQMVLYESRNKNSVA	WASARES	QQYHRLPLS	4.31 3.58 nd	3.95	1/9 (3.98)
KSSQSVLYESRDLNSVP	WASTRES	QQYHRLPLS	6.24 nd nd	6.24	4/9 (4.40)
KSSQSVLYESRNKNSVA	WALTRES	QQYVRLPLS	2.30 3.00 2.60	2.64	2/9 (3.71)
KSSQSVLYEMRNKNSVA	WASTPES	QQCHRLPLS	5.10 4.23 6.27	5.20	4/9 (4.11)
KSSQSNLYESRNKNSVA	WASTAEA	QQYHRLPLS	3.55 3.73 4.17	3.82	2/9 (4.13)
KSSQSVLYESRNKNSRA	WASTRES	AKYHRLPLS	4.58 4.51 5.95	5.01	4/9 (4.71)
KSSQSVLYETRNPNKVA	WASTRES	QQYHRLPLS	nd nd nd	nd	1/9 (3.16)
KSQQSVLYESRNKNWVA	WASTRES	QQYERLPLS	nd nd nd	nd	0/9
KSSQSVLPESRNKSSVA	WASTRES	QPYHRLPLS	3.61 3.29 3.90	3.60	1/9 (3.81)
KSSQSVLYECRNKNSVA	WASTRES	QQYMRLPLL	nd nd nd	nd	1/9 (3.27)
KSDQSVLYESRTKNSVA	WASTRES	QQYHRLPLC	1.63 1.62 1.85	1.70	2/9 (4.21)
KSSQSVLHESRYKNSVA	WASTQES	QQYHRLPLS	2.71 2.49 nd	2.60	1/9 (4.90)
KSSQSILYCSRNKNSVA	WASTRLS	QQYHRLPLS	nd nd 2.72	2.72	1/9 (2.79)
KSSQSVLYSSRNKNSVH	WASTRET	QQYHRLPLS	nd 2.80 5.55	4.18	1/9 (5.09)
KSSQSVLYESRNRNSVA	WASTRES	RQYHRLRLS	nd nd 5.42	5.42	3/9 (4.09)
KSSQSVLYESRGKNSVW	WASTRES	QQYHRLILS	nd nd nd	nd	2/9 (3.26)
KSSWSVLYEARNKNSVA	WASTREN	QQYHRLPLS	1.59 1.04 1.79	1.47	1/9 (4.19)
KSSQSVLYETRNKNSVA	WASTREP	QQYHRLPLS	0.72 0.94 1.02	0.89	3/9 (5.18)
KSSQSVSYESRNKNSVA	WASTREL	QQYHDLPLS	0.55 0.86 1.00	0.80	1/9 (3.46)
KDSQSVLMESRNKNSVA	WASTRES	QQMHRLPLS	nd nd nd	nd	1/9 (3.76)
KSSQSVLYESRNKNSVA	LASTGES	QSYHRLPLS	nd nd nd	nd	4/9 (4.60)
KSSRVVLYESRNKNSHA	WASTRES	QQYHRLPLS	nd nd nd	nd	1/9 (5.28)

The last 5 entries again:

{"CDR-L1": "KSSQSVLYETRNKNSVA", "CDR-L2": "WASTREP", "CDR-L3": "QQYHRLPLS", "replicates, log10 nM": "0.72 0.94 1.02", "mean log10 Kd (nM)": "0.89", "empty controls": "3/9 (5.18)"}
{"CDR-L1": "KSSQSVSYESRNKNSVA", "CDR-L2": "WASTREL", "CDR-L3": "QQYHDLPLS", "replicates, log10 nM": "0.55 0.86 1.00", "mean log10 Kd (nM)": "0.80", "empty controls": "1/9 (3.46)"}
{"CDR-L1": "KDSQSVLMESRNKNSVA", "CDR-L2": "WASTRES", "CDR-L3": "QQMHRLPLS", "replicates, log10 nM": "nd nd nd", "mean log10 Kd (nM)": "nd", "empty controls": "1/9 (3.76)"}
{"CDR-L1": "KSSQSVLYESRNKNSVA", "CDR-L2": "LASTGES", "CDR-L3": "QSYHRLPLS", "replicates, log10 nM": "nd nd nd", "mean log10 Kd (nM)": "nd", "empty controls": "4/9 (4.60)"}
{"CDR-L1": "KSSRVVLYESRNKNSHA", "CDR-L2": "WASTRES", "CDR-L3": "QQYHRLPLS", "replicates, log10 nM": "nd nd nd", "mean log10 Kd (nM)": "nd", "empty controls": "1/9 (5.28)"}

Empty control strains, which show no peptide, gave a signal in 18% of pairings with library AAYL50; the median was 4.19 and 95% of these signals were weaker than 2.99. No background was subtracted. Also given: how often the same scFv was detected with the empty control strains, with their mean in brackets.